# Values quoted from earlier work as cited in US20160151380A1, “THERAPIES FOR DISEASES CAUSED BY ARTHROPOD-BORNE PARASITES” (THE REGENTS OF THE UNIVERSITY OF CALIFORNIA, priority 2013, published 2016).
# Chains of the proteins cited; added tags and fusions are not shown.
# UniProt P45983, whole entry, species assumed: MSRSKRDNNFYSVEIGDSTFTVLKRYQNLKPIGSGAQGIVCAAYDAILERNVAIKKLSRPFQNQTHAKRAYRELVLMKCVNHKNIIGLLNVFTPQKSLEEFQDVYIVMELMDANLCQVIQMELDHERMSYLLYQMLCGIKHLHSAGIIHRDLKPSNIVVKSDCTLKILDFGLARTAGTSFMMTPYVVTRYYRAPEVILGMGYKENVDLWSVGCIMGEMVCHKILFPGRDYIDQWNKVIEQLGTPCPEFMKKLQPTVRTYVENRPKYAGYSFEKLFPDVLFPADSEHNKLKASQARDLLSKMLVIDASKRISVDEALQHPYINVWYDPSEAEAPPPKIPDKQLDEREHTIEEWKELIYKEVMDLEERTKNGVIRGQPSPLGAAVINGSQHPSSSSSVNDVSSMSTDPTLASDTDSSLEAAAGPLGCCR
# UniProt P53779, whole entry, species assumed: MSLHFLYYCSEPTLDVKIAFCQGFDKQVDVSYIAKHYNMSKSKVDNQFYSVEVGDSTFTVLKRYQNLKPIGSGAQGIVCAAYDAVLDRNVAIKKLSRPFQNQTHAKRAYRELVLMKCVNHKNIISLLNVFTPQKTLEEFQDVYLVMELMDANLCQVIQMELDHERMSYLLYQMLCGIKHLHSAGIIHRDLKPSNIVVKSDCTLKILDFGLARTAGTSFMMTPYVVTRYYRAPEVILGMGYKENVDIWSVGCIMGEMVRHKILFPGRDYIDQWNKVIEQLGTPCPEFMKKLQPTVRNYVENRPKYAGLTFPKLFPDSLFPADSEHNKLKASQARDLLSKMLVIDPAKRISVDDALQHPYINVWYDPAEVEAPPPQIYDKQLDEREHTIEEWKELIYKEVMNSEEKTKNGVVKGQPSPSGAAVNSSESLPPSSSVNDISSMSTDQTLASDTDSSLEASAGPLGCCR
# What was measured:
# JNK1 = JNK1 (Homo sapiens, UniProt P45983); details: cited from earlier work
# JNK3 = JNK3 (Homo sapiens, UniProt P53779); details: cited from earlier work
substance,measurement,setting,value
JNKIN7,pIC50,JNK1,> 7.40
same,pIC50,JNK3,> 7.40

# pIC50: −log10 of the molar value.
